# Compound activity (PubChem BioAssay)
# MITF TRPM1 inh: reduces MITF-dependent TRPM1 promoter luciferase signal. 330,000 tested, 0.83% active. SK-MEL-5 TRPM1 promoter luciferase, 24 h. inhibition, % at 12.5 µM;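 active means mean inhibition across replicates of 60% or more, whatever share of single replicates reaches that level; inconclusive means some that reach 60%, reason not given; inactive means mean inhibition across replicates below 60%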
# MITF TRPM1 HTS: MITF TRPM1 promoter activation in melanoma cells; activation, % at 12.5 µM; 300,000 tested, 0.75% active; SK-MEL-5 TRPM1-promoter luciferase, 24 h; % of positive control, neutral wells = 0; AID 588334;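 active means mean activation of at least 80% with every replicate also reaching 80%; inconclusive means mean reaches 80% but some replicate falls short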;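 further: 0% = neutral control wells and 100% = parthenolide positive control wells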
# PGC1a acetyl inh: PGC1a acetylation modulation, inhibitor mode; 350,000 tested, 0.17% active; inhibition, % at 15.6 µM; U2OS PGC1a acetylation, AlphaScreen anti-acetyl-lysine; with virally co-expressed GCN5 acetyltransferase; AID 651687;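 active means every replicate shows inhibition of at least 40%; inconclusive means mean inhibition at least 40% but some replicate below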;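 further: 0% = neutral control wells and 100% = positive control wells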
# miR122 inh: miR-122 inhibition in Huh7 cells; Huh7 miR-122 Renilla luciferase sensor, 48 h; neutral wells = 0, positive control = 100; 340,000 tested, 0.3% active; AID 602342; activation (reporter increase), % at 12.5 µM;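 active means mean replicate activation score at least 90 and every replicate individually at or above 90; inconclusive means only one of the two criteria met; inactive means neither criterion met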;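 further: higher luciferase means less miR-122 activity so hits act as miR-122 inhibitors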
# Wnt bcat act: Wnt/beta-catenin pathway activation; AID 743398; Wnt/beta-catenin reporter cell assay, activator, plate reader; 300,000 tested, 1.2% active; activation, % at 9.35 µM; in the data active means activation above about 30%, passing the limit was not always enough; inconclusive means no clear call, values can overlap the other calls;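 further: 0% = neutral control wells and 100% = positive control wells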
# Yeast UUG start: yeast start codon fidelity modulation | S. cerevisiae UUG-firefly luciferase reporter, luminescence/redox ratio | activity score, % at 18.7 µM | 0.13% of 350,000 active | AID 602363;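 active means replicate mean at a twofold rise or more, about +100% in these data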;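 further: firefly luciferase made from a UUG start codon reports start codon fidelity; reporter light over untreated wells divided by growth signal over untreated wells; some hits fall short of that in this replicate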
# An asterisk follows results filed as active; u = inconclusive; x = no result; ! = not active in a repeat; [ ] = dose if it differs, or a comment. The list is not random: actives were taken first. Their share in the collection is about 2.1%.
# Start of the data: the first 2 entries (preview)
[1] C[C@H](CO)N1C[C@H](C)[C@@H](CN(C)Cc2ccccc2F)Oc2ncc(Br)cc2C1=O
[2] COc1cc(C(=O)N/N=C(\C)c2ccccn2)cc(OC)c1OC
Compound,1,2
MITF TRPM1 inh,x,39.0
MITF TRPM1 HTS,x,-37.5
PGC1a acetyl inh,63.8*!,x
miR122 inh,18.1,-4.3
Wnt bcat act,-1.3,-4.0
Yeast UUG start,1.0,-13.0

# The listing, from the first entry:
[1] C[C@H](CO)N1C[C@H](C)[C@@H](CN(C)Cc2ccccc2F)Oc2ncc(Br)cc2C1=O
[2] COc1cc(C(=O)N/N=C(\C)c2ccccn2)cc(OC)c1OC
[3] COc1cccc(C(=O)N/N=C(/c2ccccc2)c2ccccn2)c1
[4] COc1cc(C(=O)N/N=C(\c2ccccc2)c2ccccn2)cc(OC)c1OC
[5] O=C(N/N=C/c1c(Cl)cccc1Cl)c1ccc(F)cc1
Compound,1,2,3,4,5
MITF TRPM1 inh,x,39.0,66.1*,78.4*,-11.8
MITF TRPM1 HTS,x,-37.5,-65.6,-76.1,14.9
PGC1a acetyl inh,63.8*!,x,1.7,x,3.4
miR122 inh,18.1,-4.3,6.6,x,-17.2
Wnt bcat act,-1.3,-4.0,-11.3,-3.2,1.1
Yeast UUG start,1.0,-13.0,-19.3,x,-12.2

[6] Cn1cccc1C(=O)N/N=C/c1c(Cl)cccc1Cl
[7] COc1ccc(N(C(=O)c2ccco2)S(=O)(=O)c2ccccc2)cc1
[8] COc1ccc(N(C(=O)c2ccco2)S(=O)(=O)c2cc(Cl)c(Cl)cc2Cl)cc1
[9] O=C(NC1CCCCC1)N1CC(=O)N2[C@H](CO)[C@@H](c3ccc(-c4cccc(F)c4)cc3)[C@@H]2C1
[10] CC(=O)N1[C@@H](CO)[C@@H](c2ccccc2)C12CN(C(=O)c1ccccc1)C2
Compound,6,7,8,9,10
MITF TRPM1 inh,-98.2,6.4,1.5,x,x
MITF TRPM1 HTS,92.1*,-5.7,-5.6,x,x
PGC1a acetyl inh,0.0,2.2,7.8,11.0,8.4
miR122 inh,-2.5,5.0,133.8*,x,x
Wnt bcat act,28.0,x,x,x,x
Yeast UUG start,-11.6,-19.8,x,x,x

[11] O=C(/C=C/c1ccc([N+](=O)[O-])cc1)c1ccco1
[12] O=C(/C=C/c1ccc(-c2ccccc2[N+](=O)[O-])o1)c1ccco1
[13] Cc1noc(C)c1S(=O)(=O)Nc1ccc2c(c1)C(=O)N([C@H](C)CO)C[C@@H](C)[C@H](CN(C)S(=O)(=O)c1c(C)noc1C)OCCCC[C@@H](C)O2
[14] CC1CC1C(=O)OCc1cc(=O)n2cc(Br)ccc2n1 (stereo unspecified)
[15] Cc1oc(-c2ccc(Cl)cc2)nc1CN1CCC(C(=O)NCCCN2CCCC(C)C2)CC1 (stereo unspecified)
Compound,11,12,13,14,15
MITF TRPM1 inh,-4.4,6.1,x,-71.4,95.9*
MITF TRPM1 HTS,2.0,-7.5,x,79.5,-94.6
PGC1a acetyl inh,-0.7,x,-3.5,-3.6,-28.2
miR122 inh,-0.3,x,-8.7[16.7 µM],3.2,-18.3
Wnt bcat act,3.2,171.6*,x,41.1*,0.2
Yeast UUG start,-11.0,x,3.0,-37.7,-13.9

[16] Cc1oc(-c2ccc(Cl)cc2)nc1CN1CCC(C(=O)NCCCN2CCCC2=O)CC1
[17] Cn1cccc1C(=O)NCCc1ccc(Cl)cc1
[18] COc1ccc(S(=O)(=O)Nc2ccc(-c3ccc4nnc(C)n4n3)cc2)c(OC)c1
[19] C[C@H]1CN([C@@H](C)CO)C(=O)Cc2cc(NC(=O)Nc3ccc4c(c3)OCO4)ccc2O[C@@H]1CN(C)C(=O)NC1CCCCC1
[20] COc1ccccc1NS(=O)(=O)c1cc(C(=O)NCc2ccco2)ccc1C
Compound,16,17,18,19,20
MITF TRPM1 inh,1.4,-113.5,9.7,x,12.7
MITF TRPM1 HTS,-4.2,114.4*,-9.9,x,-10.4
PGC1a acetyl inh,x,x,2.3,8.2,x
miR122 inh,x,x,92.4*,-1.6[16.7 µM],109.9*
Wnt bcat act,-6.5,26.3,-1.2,x,x
Yeast UUG start,-15.1,5.2,-8.5,12.1,23.7

[21] Cc1ccc(C)c(NS(=O)(=O)c2cc(C(=O)NCc3ccco3)ccc2C)c1
[22] Cc1ccc(C(=O)NCc2ccco2)cc1S(=O)(=O)Nc1cccc(C)c1C
[23] Cc1noc(C)c1NC(=O)N(C)C[C@@H]1Oc2ccc(NC(=O)CCCCCC(=O)Nc3ccccc3N)cc2CC(=O)N([C@H](C)CO)C[C@@H]1C
[24] CCN(CC)c1ccc2cc(NC(=O)CCC(=O)O)c(=O)oc2c1
[25] OC[C@@H]1[C@H](c2ccc(-c3cccnc3)cc2)[C@H]2CN(CC3CCOCC3)CCCCN12
Compound,21,22,23,24,25
MITF TRPM1 inh,6.6,12.1,x,92.4*,x
MITF TRPM1 HTS,-3.3,-9.2,x,-90.4,x
PGC1a acetyl inh,2.9,-2.7,1.9,-9.8,3.3
miR122 inh,200.0*,244.3*,0.8[16.7 µM],x,6.1[16.7 µM]
Wnt bcat act,x,x,x,-19.4,x
Yeast UUG start,-9.7,-3.8,7.2,x,-14.9

[26] COc1ccccc1NC(=O)N1CCCCN2[C@@H](CO)[C@@H](c3ccc(C#CC4CC4)cc3)[C@@H]2C1
[27] O=C(C[C@H]1CC[C@H](NC(=O)C2CC2)[C@H](CO)O1)NCC1CC1
[28] Cc1cc(NC(=O)c2ccc(S(=O)(=O)Nc3ccccc3)cc2)no1
[29] CCOc1ccc(S(=O)(=O)Nc2ccc(C(=O)NN)cc2)cc1
[30] COc1ccc(NS(=O)(=O)c2ccc(NC(=S)NC(=O)C(C)C)cc2)cc1
Compound,26,27,28,29,30
MITF TRPM1 inh,x,x,2.0,6.3,7.5
MITF TRPM1 HTS,x,x,x,-1.4,-5.2
PGC1a acetyl inh,-6.0,8.5,9.5,3.7,-6.8
miR122 inh,x,x,13.2,-13.4,u
Wnt bcat act,x,x,-7.0,53.0*,x
Yeast UUG start,x,-4.1,-15.3,-12.5,-2.0

[31] CCOc1ccc(NS(=O)(=O)c2ccc(NC(=S)NC(=O)C(C)C)cc2)cc1
[32] CC(C)C(=O)NC(=S)Nc1ccc(S(=O)(=O)Nc2ccccc2)cc1
[33] Cc1ccc(S(=O)(=O)Nc2ccc(C(=O)Nc3cc(C)on3)cc2)cc1
[34] C[C@@H]1CN([C@H](C)CO)C(=O)c2cc(NS(=O)(=O)c3ccccc3)ccc2O[C@@H]1CN(C)S(=O)(=O)c1cn(C)cn1
[35] C=C(C)CSc1nncn1/N=C/c1ccc(OC)cc1
Compound,31,32,33,34,35
MITF TRPM1 inh,1.2,1.8,-9.6,x,-91.3
MITF TRPM1 HTS,-1.1,-2.5,12.3,x,98.3*
PGC1a acetyl inh,0.1,x,8.6,0.1,-2.7
miR122 inh,115.1*,136.6*,115.4*,4.6[16.7 µM],-1.0
Wnt bcat act,x,-1.9,x,x,x
Yeast UUG start,-9.0,-29.0,-8.1,-1.4,-3.1

[36] CCSc1nncn1/N=C/c1ccc(OC)c(OC)c1
[37] C/C(=C\C(=S)Nc1ccccc1)Nc1ccc2ccccc2c1
[38] CCOC(=O)c1c(C)oc2c1C(=O)c1ccccc1C2=O
[39] Cc1oc2c(c1C(=O)O)C(=O)c1ccccc1C2=O
[40] O=c1[nH]c(=O)n([C@H]2C[C@H](O)[C@@H](CO)O2)cc1Br
Compound,36,37,38,39,40
MITF TRPM1 inh,-24.8,-21.3,96.7*,52.9,21.5
MITF TRPM1 HTS,x,14.4,-95.1,-50.6,-21.4
PGC1a acetyl inh,34.1,x,x,2.0,10.5
miR122 inh,-3.3,x,x,-3.8,30.1
Wnt bcat act,0.6,52.2*,0.9,1.6,46.5*
Yeast UUG start,-14.8,x,-22.8,-22.8,-13.9

# Whole records, quoted from the list. Order of values: MITF TRPM1 inh | MITF TRPM1 HTS | PGC1a acetyl inh | miR122 inh | Wnt bcat act | Yeast UUG start
# CCSc1nncn1/N=C/c1ccc(OC)c(OC)c1 reads -24.8 | x | 34.1 | -3.3 | 0.6 | -14.8
# Cc1oc2c(c1C(=O)O)C(=O)c1ccccc1C2=O reads 52.9 | -50.6 | 2.0 | -3.8 | 1.6 | -22.8

# New compounds follow.
[41] CC(C)n1cc(/C=C/c2cc[n+](C)cc2)c2ccccc21
[42] CCn1cc(/C=C/c2cc[n+](C)cc2)c2ccccc21
[43] COc1cccc(-c2cnc3c(c2)C(=O)N([C@H](C)CO)C[C@@H](C)[C@@H](CN(C)C(=O)Nc2c(C)noc2C)O3)c1
[44] C[C@H](CO)N1C[C@H](C)[C@H](CN(C)C(=O)c2ccc(F)cc2)Oc2cc(C3=CCCC3)ccc2S1(=O)=O
[45] COc1ccc(C2=Nn3c(nnc3-c3ccccc3C(F)(F)F)SC2)cc1OC1CCOC1 (stereo unspecified)
[46] COc1ccc(OC)c(-c2nnc3n2N=C(c2ccc(OC)c(OCC4CC4)c2)CS3)c1
[47] COc1ccc(C2=Nn3c(nnc3-c3ccccc3OC)SC2)cc1OC1CCOC1 (stereo unspecified)
[48] CCCNC(=O)c1cc2c(c(-c3cccc(-c4cccc(OC)c4)c3)n1)[C@@H](CCO)N([S@](=O)C(C)(C)C)C2
Compound,41,42,43,44,45,46,47,48
MITF TRPM1 inh,63.3*,35.4,x,x,5.0,65.1*,63.2*,x
MITF TRPM1 HTS,-62.4,-29.6,x,x,-1.6,-64.4,-60.5,x
PGC1a acetyl inh,8.3,-3.0,7.5,-6.7,x,-20.3,x,-26.1
miR122 inh,-19.8,-31.3,6.2[16.7 µM],12.8[16.7 µM],x,9.1,131.4*,x
Wnt bcat act,-4.9,-0.1,x,x,5.5,x,-5.8,x
Yeast UUG start,-9.1,-2.9,15.7,x,-14.2,-7.8,5.2,x
